Laboratory results published in PubChem BioAssay (Tox21).
Where “and” joins values, the source holds several entries; their conditions need not be identical. Equal values may be shown once. This is a selection; strong and weak results do not stand in their true shares. Calls of active or inactive are those of the source. Calls follow the shape of the full dose curve.

Chains of the proteins cited; added tags and fusions are not shown.
UniProt P30968, whole entry: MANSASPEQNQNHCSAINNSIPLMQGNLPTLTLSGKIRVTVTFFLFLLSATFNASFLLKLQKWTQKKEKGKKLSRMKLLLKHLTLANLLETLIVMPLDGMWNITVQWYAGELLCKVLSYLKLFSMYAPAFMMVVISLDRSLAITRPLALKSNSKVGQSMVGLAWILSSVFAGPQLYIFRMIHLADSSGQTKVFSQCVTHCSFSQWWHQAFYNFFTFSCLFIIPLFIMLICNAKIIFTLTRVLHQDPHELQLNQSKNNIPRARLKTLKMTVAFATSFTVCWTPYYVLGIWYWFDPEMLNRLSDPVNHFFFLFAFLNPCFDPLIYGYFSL

The compounds below were run against Gonadotropin-releasing hormone receptor (Homo sapiens) (UniProt P30968) (assay: Human gonadotropin-releasing hormone receptor (GnRHR) small molecule agonists, calcium flux assay in GnRHR-HEK293 cells (AID 1920063; also: nearly all actives have a fitted effect of over 35% in size)). Details: calcium flux fluorescence, agonist mode, at 26.4 µM (top of the series), stronger effect = higher value.
Excerpt: National Center for Advancing Translational Sciences [NCATS]
Division of Preclinical Innovation [DPI]
U.S. Environmental Protection Agency [EPA]
National Institutes of Environmental Health Sciences [NIEHS]
National Toxicology Program [NTP]
U.S. Food and Drug Administration [FDA]
Gonadotropin-releasing hormone receptor (GnRHR) is a G-protein-coupled receptor (GPCR) and acts (through phospholipase C) to increase intracellular inositol trisphosphate and then release intracellular calcium stores. Cell-based GnRHR-Hek293 calcium influx assay is using HEK293 cells that have been genetically engineered to express the human GnRHR, which activity can be measured by calcium signaling. A compound/drug can activate (agonist) GnRHR that can be monitored by levels of intracellular calcium.
GnRHR-HEK293 cells developed by Codex Corp contain human GnRHR reporter gene, which was stably integrated into HEK 293 cells. The compound activation can be detected by fluorescence intensity via calcium flux assay. This cell line has been used to screen the Tox21 10K compound library to identify GnRHR agonists.
GnRHR-Hek293 cells were dispensed at 1500cells/4uL/well in 1536-well black wall/clear bottom plates using a multidrop dispenser. After the assay plates were incubated at a 37 C/5% CO2 incubator for 18 hours, 4 uL of Calcium Dye Solution was added to each well. The plates were incubated at 37 C for 1 hour. For agonist mode, 23 nL of compounds dissolved in DMSO, positive controls or DMSO only was transferred to the assay plate by a pin tool station. The fluorescence intensity in the plates was measured using FDSS 7000EX kinetic plate reader with a filter set of Ex/Em=480/540 for 3 min at 1 sec intervals. Each test compound was measured at 15 concentrations and in triplicates.
% is scaled to controls: 0 for no effect and ±100 for the full control effect.

SMILES	activity change
OCCSCCO	inactive: -0.0855%

Same assay, conditions: calcium flux fluorescence, agonist mode, at 57.6 µM (top of the series), stronger effect = higher value

SMILES	activity change
OCCSCCO	inactive: 0.705%

Same assay, conditions: calcium flux fluorescence, agonist mode, stronger effect = higher value; at 57.6 µM (top of the series) unless noted

SMILES	activity change
CCN(CC)CCCl	inactive: 0.153%
COc1ccc([N+](=O)[O-])cc1[N+](=O)[O-]	inactive: -0.161%
[NH4+].[O-][Cl+3]([O-])([O-])[O-]	inactive: -0.663% and inactive: 1.35%
N=C(N)N[N+](=O)[O-]	inactive: -0.238%
Cc1c([N+](=O)[O-])cccc1[N+](=O)[O-]	inactive: -0.901% and inactive: -0.819%
CN(C)CCCl	inactive: -0.546%
CCOP(=O)(CC)Oc1ccc([N+](=O)[O-])cc1 (configuration not stated)	inactive: 0.568% [at 26.4 µM]
N#CBr	inactive: 0.409%
CC(C)OP(C)(=O)OC(C)C	inactive: 0.771% and inactive: 0.691%
CP(=O)(O)OCCC[Si](O)(O)O	inactive: 0.708%
C/C1=C2N=C(/C=C3N=C(/C(C)=C4\[N-][C@@](C)([C@@H]5N=C1[C@](C)(CCC(=O)NC[C@@H](C)OP(=O)([O-])O[C@H]1[C@@H](O)[C@@H](n6cnc7cc(C)c(C)cc76)O[C@@H]1CO)[C@H]5CC(N)=O)[C@@](C)(CC(N)=O)[C@@H]4CCC(N)=O)[C@@](C)(CC(N)=O)[C@@H]\3CCC(N)=O)C(C)(C)[C@@H]/2CCC(N)=O.[C-]#N.[Co+3]	inactive: -0.119% [at 26.4 µM]
COP(C)(=O)OC	inactive: 0.303% and inactive: -1.71%
O=[N+]([O-])[O-].[NH4+]	inactive: -0.269% and inactive: -0.212%
CC(C)N(CCO)C(C)C	inactive: -0.424%
Cc1ccc([N+](=O)[O-])cc1[N+](=O)[O-]	inactive: 1.64% and inactive: -0.557%
CCOP(=O)(CC)OCC	inactive: 0.743%
Cc1cccc([N+](=O)[O-])c1[N+](=O)[O-]	inactive: -0.969% [at 26.4 µM]
O=[N+]([O-])c1cccc([N+](=O)[O-])c1	inactive: -2.9%
Nc1cc([N+](=O)[O-])cc([N+](=O)[O-])c1O	inactive: 4.72%
O=[N+]([O-])OCC(CO[N+](=O)[O-])(CO[N+](=O)[O-])CO[N+](=O)[O-]	inactive: 2.25%
